The values that follow are results of earlier work, collected in US20210260074A1, “SEIZURE CONTROL COMPOSITIONS AND METHODS OF USING SAME” (published 2021).

Structures are written as SMILES. Where only a bound is given, the exact number is not on record here.

The subject of this data set is status epilepticus (SE). The following applies: nerve agent exposure.

On to `CN1[C@@H]2CC[C@H]1C[C@@H](OC(=O)C(CO)c1ccccc1)C2` (stereo partly shown), for which the “time window after exposure in which seizures may be treated” value was ≤ 5 min.
